According to publication doi:10.1101/2025.03.31.646177v2:

What was measured:
[1] = target: T1, HDAC6-HiBiT (endogenously tagged HDAC6 in HeLa HDAC6-HiBiT LgBiT cells) (Homo sapiens, UniProt Q9UBN7); assay: NanoBRET competition with tracer […], Cheng-Prusoff; assay type: cell-based; details: whole cells, […] °C, […] h, […] tracer […]; unreliable (autofluorescence, upper estimate)
[2] = target: HDAC6 (human recombinant) (Homo sapiens, UniProt Q9UBN7); assay: fluorogenic HDAC assay; assay type: biochemical; details: pH […] °C, no preincubation
[3] = target: T1, HDAC6-HiBiT (endogenously tagged HDAC6 in HeLa HDAC6-HiBiT LgBiT cells); assay: NanoBRET competition with tracer […]; assay type: cell-based; details: whole cells, […] °C, […] h, […] tracer […]; unreliable (autofluorescence, upper estimate)

Ki [1]: 0.083 ± 0.030 µM
IC50 [2]: 0.026 µM
IC50 [3]: 0.59 ± 0.21 µM
SMILES: O=C1CCC(N2C(=O)c3cccc(NCCOCCOCCn4cc(CCCCN(Cc5ccc(C(=O)NO)cc5)C(=O)Nc5ccccc5)nn4)c3C2=O)C(=O)N1 (stereo not drawn)
